Our source for the Ratio IC50 values is ChEMBL document CHEMBL4627260, “Optimisation of estrogen receptor subtype-selectivity of a 4-Aryl-4H-chromene scaffold previously identified by virtual screening” (Bioorg Med Chem, 2020).

The species named for the first assay is Homo sapiens. In words: Selectivity ratio of IC50 for displacement of fluorescent estrogen ligand from recombinant human full length untagged ERbeta expressed in baculovirus infected insect cells to IC50 for displacement of fluorescent estrogen ligand from recombinant human full length untagged ERalpha expressed in baculovirus infected insect cells.
Consider `CCOC(=O)C1=C(N)Oc2cc(O)ccc2C1c1ccc(OCCN2CCCC2)cc1` (stereo not drawn), for which the Ratio IC50 is 2.21. On the same count and under the same terms, in the case of `CCOC(=O)C1=C(N)Oc2cc(O)ccc2C1c1ccccc1` (stereo not drawn) it was 0.26; in that of `N#CC1=C(N)Oc2cc(O)ccc2C1c1ccc(OCCN2CCCCC2)cc1` (stereo not drawn), 7.1. Still for that read-out and setting: next, `N#CC1=C(N)Oc2cc(O)ccc2C1c1ccccc1` (stereo not drawn): 0.84. On the same count and under the same terms, in the case of `COC(=O)C1=C(N)Oc2cc(O)ccc2C1c1ccccc1` (stereo not drawn) it was 0.48; in that of `COC(=O)C1=C(N)Oc2cc(O)ccc2C1c1ccc(OCCN2CCOCC2)cc1` (stereo not drawn), 0.0054; in that of `CCCCOC(=O)C1=C(N)Oc2cc(O)ccc2C1c1ccc(OCCN2CCCCC2)cc1` (stereo not drawn), 87.3. Consider `COC(=O)C1=C(N)Oc2cc(O)ccc2C1c1ccc(OCCN2CCCCC2)cc1` (stereo not drawn), for which the Ratio IC50 was determined as 4.77. Same read-out and setting: in the case of `CC(C)(C)OC(=O)C1=C(N)Oc2cc(O)ccc2C1c1ccc(OCCN2CCCCC2)cc1` (stereo not drawn) it was 3.93; in that of `N#CC1=C(N)Oc2cc(O)ccc2C1c1ccc(OCCN2CCCC2)cc1` (stereo not drawn), 11.2. Still for that read-out and setting: in the case of `CCOC(=O)C1=C(N)Oc2cc(O)ccc2C1c1ccc(OCCN2CCCCC2)cc1` (stereo not drawn) it was 2.56; in that of `COC(=O)C1=C(N)Oc2cc(O)ccc2C1c1ccc(OCCN2CCCC2)cc1` (stereo not drawn), 14.3. With `CCCCOC(=O)C1=C(N)Oc2cc(O)ccc2C1c1ccc(OCCN2CCCC2)cc1` (stereo not drawn), the Ratio IC50 stood at 353. As for `COC(=O)C1=C(N)Oc2cc(O)ccc2C1c1ccc(O)cc1` (stereo not drawn), the Ratio IC50 is 12.7. As to `CC(C)(C)OC(=O)C1=C(N)Oc2cc(O)ccc2C1c1ccc(OCCN2CCCC2)cc1` (stereo not drawn), the Ratio IC50 came out at 49.5. Same read-out and setting: in the case of `CCOC(=O)C1=C(N)Oc2cc(O)ccc2C1c1ccc(OCCN2CCOCC2)cc1` (stereo not drawn) it was 11; in that of `N#CC1=C(N)Oc2cc(O)ccc2C1c1ccc(OCCN2CCOCC2)cc1` (stereo not drawn), 3.58.

The species named for the next assay is Homo sapiens. In words: Selectivity ratio of IC50 for displacement of fluorescent estrogen ligand from recombinant human full length untagged ERalpha expressed in baculovirus infected insect cells to IC50 for displacement of fluorescent estrogen ligand from recombinant human full length untagged ERbeta expressed in baculovirus infected insect cells.
With `COC(=O)C1=C(N)Oc2cc(O)ccc2C1c1ccc(OCCN2CCOCC2)cc1` (stereo not drawn), the Ratio IC50 worked out at 170.
